# In PubChem BioAssay AID624354 (Sanford-Burnham Center for Chemical Genomics, 2012):
# The list shows a part of the results, in another mix than the full data. Some tests of the compounds listed are not included; inactive here does not mean inactive elsewhere. Calls of active or inactive are those of the source.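 Rule for the calls: active = compounds causing at least 50% loss of cell viability in the single-dose screen, relative to plate controls; inactive = the rest.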
# Experiment: viability loss with TRAIL in NB7+C8 cells, primary screen, TRAIL sensitizer project, cell-based, ATPlite luminescence (AID 624354)
# Details: at 10 µM, active compounds read high
row,SMILES,"inhibition (viability loss, TRAIL sensitization)"
1,Cc1ccccc1C(=O)NCC1(N2CCCCC2)CCCCC1,inactive: -7.47%
2,CN(C)C1CCCC1OC(=O)C(O)(c1ccccc1)c1ccccc1 (stereo unspecified),inactive: 4.39%
3,CN(C)c1ccc(C(=O)NCC2(N(C)C)CCCCC2)cc1,inactive: 10.4%
4,Cc1cc(C(=O)NCC2(N3CCCCC3)CCCCC2)ccc1[N+](=O)[O-],inactive: 4.67%
5,CCN1CCCC(OC(=O)C2(O)c3ccccc3C=Cc3ccccc32)C1 (stereo unspecified),inactive: -12.8%
6,O=C(NCC1(N2CCCCC2)CCCCC1)c1cccc(Br)c1,inactive: 5.79%
7,COc1ccc(C(=O)NCC2(N(C)C)CCCCC2)cc1,inactive: 9.02%
8,C=CCN1CCN(CCOC(=O)C(O)(c2ccccc2)c2ccccc2)CC1,inactive: 4.74%
9,O=C(NCC1(N2CCCCC2)CCCCC1)c1cc(F)c(F)cc1Cl,inactive: 9.77%
10,CN1[C@@H]2CC[C@H]1CC(OC(=O)C(O)(c1ccccc1)c1ccccc1)C2 (stereo partly specified),inactive: 15.1%
11,O=C(NCC1(N2CCCCC2)CCCCC1)c1cc([N+](=O)[O-])ccc1Cl,inactive: -5.33%
12,Cc1ccc(C(=O)NCC2(N3CCCCC3)CCCCC2)cc1,inactive: -20.6%
13,CC(C)N1C(=O)CC2(CCN(CCOC(=O)C(O)(c3ccccc3)c3ccccc3)CC2)C1=O,inactive: -10.4%
14,CCN(CC)CC(C)C(C)OC(=O)C(O)(c1ccccc1)c1ccccc1 (stereo unspecified),inactive: -17.5%
15,COc1cc(SC)ccc1C(=O)NCC1(N(C)C)CCCCC1,inactive: -12.7%
16,O=C(OC1CN2CCC1CC2)C(CO)(c1ccccc1)c1ccccc1 (stereo unspecified),inactive: -16.9%
17,CN(C)c1cccc(C(=O)NCC2(N(C)C)CCCCC2)c1,inactive: -8.47%
18,CC(C)Oc1ccc(C(=O)NCC2(N(C)C)CCCCC2)cc1,inactive: 15.3%
19,O=C(OCCN1CCCC1)C(O)(c1ccccc1)c1ccccc1,inactive: 1.51%
20,COc1ccc(Br)c(C(=O)NCC2(N3CCCCC3)CCCCC2)c1,inactive: -7.62%
21,C=C(C)C#CC(O)(C(=O)OC1CCN(C)CC1)c1ccccc1 (stereo unspecified),inactive: -8.55%
22,COc1cc(C(=O)NCC2(N(C)C)CCCCC2)c([N+](=O)[O-])cc1OC,inactive: -25%
23,CN(C)C1(CNC(=O)c2ccc(Br)cc2)CCCCC1,inactive: 5.81%
24,O=C(NCC1(N2CCCCC2)CCCCC1)c1cccc(Cl)c1,inactive: 9.89%
25,COc1cccc(C(=O)NCC2(N3CCCCC3)CCCCC2)c1,inactive: 18.6%
26,COc1ccc(Cl)cc1C(=O)NCC1(N(C)C)CCCCC1,inactive: 0.745%
